Results: patent US9938245B2 (THE TRUSTEES OF COLUMBIA UNIVERSITY IN THE CITY OF NEW YORK, priority 2014, dated 2018)

Tested on: lipid peroxides
Assay: Lipid peroxide detection using BODIPY-C11
Format: cell-based
Details: BJeLR and other BJ-derived cells

**Q.** With `O=[As]c1ccccc1` (stereo not shown) as the molecule, how does the “generation of lipid peroxides (BODIPY-C11)” value read?
**A.** Its value is “showed weak generation of lipid peroxides”.
